The values that follow come from US5233050A, “Antimigraine alkyl indole” (Merck & Co., Inc., priority 1992, dated 1993).

By UniProt entry, the sequences of proteins in these tests, tags left out.
UniProt P14842, whole entry: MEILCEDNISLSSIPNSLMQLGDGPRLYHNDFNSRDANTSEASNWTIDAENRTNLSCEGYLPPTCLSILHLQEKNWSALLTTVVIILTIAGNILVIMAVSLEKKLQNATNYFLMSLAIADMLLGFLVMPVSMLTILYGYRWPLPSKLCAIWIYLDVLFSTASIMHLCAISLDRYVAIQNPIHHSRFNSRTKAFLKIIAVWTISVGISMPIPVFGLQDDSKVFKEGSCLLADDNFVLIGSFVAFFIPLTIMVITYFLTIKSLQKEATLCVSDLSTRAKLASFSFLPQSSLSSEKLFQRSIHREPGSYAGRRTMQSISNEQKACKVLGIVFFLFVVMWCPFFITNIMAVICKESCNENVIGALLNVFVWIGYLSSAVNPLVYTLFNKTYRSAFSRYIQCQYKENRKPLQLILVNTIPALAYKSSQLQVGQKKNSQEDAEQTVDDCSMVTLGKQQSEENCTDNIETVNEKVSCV

The assay has as its target T1, 5-HT2 (Rattus norvegicus, UniProt P14842).
T1 construct: from tissue; host or cells: rat cortical membranes (inferred from the cited Titeler et al)
Description: 5-HT2 radioligand binding assay. Conditions: for comparison; read-out: pIC50, 5-HT2 (converted). As for the experimental part: 5-HT1D radioligand binding assay was carried out according to Heuring and Peroutka (Heuring, R. E., and Peroutka, S. J., J. Neurosci., 7:894-903, 1987) with slight modifications as follows. Polypropylene tubes containing ^3 H-5HT (2 nM), cyanopindolol (100 nM), mesulergine (100 nM) and crude pig striatal membranes (10 mg wet weight per tube) in a final assay volume of 1 ml were used. All reagents and tissues were made up in […] Tris. HCl containing 0.1% ascorbate, 10 μM pargyline and 4 mM CaCl2 (pH 7.7 at room temperature). 5-HT (10 μM) was used to define non-specific binding. The incubation was initiated by the addition of membranes and carried out for 30 minutes at 37° C. Following incubation, membranes were rapidly filtered under vacuum through Whatmann GF/B filters using a Brandel Cell Harvester, followed by 2×3 ml washes with 50 mM Tris. HCl (pH 7.7 at room temperature). Bound radioactivity was determined by liquid scintillation spectrometry. 5-HT1A and 5-HT2 radioligand binding assays were performed according to Hall, et al., J. Neurochem., 44, 1685-1696, 1985 and Titeler, et al., Eur. J. Pharmacol., 117, 145-146, 1987, respectively.

In the case of `CNS(=O)(=O)Cc1ccc2[nH]cc(CCN(C)C)c2c1` [sumatriptan, reference compound], the IC50 was over 10 µM.
